# Ab-95 light chain CDR variants: yeast mating affinities

Values reported by Engelhart et al. 2022, doi:10.1038/s41597-022-01779-4 (FLAb copy).

Target: peptide PDVDLGDISGINAS, taken from heptad repeat 2 (HR2) of SARS-CoV-2 spike.

The variants keep the heavy chain, the linker and the frameworks of Ab-95 (scFv order VH, three GGGGS repeats, VL).
VH: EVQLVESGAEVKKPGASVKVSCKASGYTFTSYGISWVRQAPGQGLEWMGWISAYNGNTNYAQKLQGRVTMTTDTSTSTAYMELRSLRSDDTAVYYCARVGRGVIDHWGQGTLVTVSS
VL: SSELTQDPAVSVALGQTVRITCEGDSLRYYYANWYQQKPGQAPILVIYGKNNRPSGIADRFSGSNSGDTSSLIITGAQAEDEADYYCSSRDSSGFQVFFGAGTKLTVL

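Library AAYL52 holds single substitutions and randomly drawn double and triple substitutions in the CDRs. Affinity was read by AlphaSeq, a pooled yeast mating assay with surface-displayed partners. Pairs that bind mate more often; barcode pairs of the diploids are counted by sequencing. A regression on co-assayed BCL2-family reference pairs converts the normalised counts of each replicate to an apparent Kd. Mating was done three times.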

Positions count from residue 1 of the parent VL; S26I puts I in place of S.
The read-out is the apparent dissociation constant on a log10 scale (nM): the lower, the stronger.
The mean shown is taken over the replicates in which the pair was detected.
Where no diploid with the target was found in that replicate, the entry reads "nd": below detection, most likely a poor binder, though not proof of it.

| changes | log10 Kd, replicates | log10 Kd (nM), mean | control signals |
|---|---|---|---|
| S26I G94K | 3.83 / 5.17 / nd | 4.50 | 1 of 9 (4.36) |
| N52I F95R | 2.87 / 2.81 / 2.24 | 2.64 | 2 of 9 (4.44) |
| G24F K50Q F98H | 2.27 / 2.58 / 2.04 | 2.30 | 4 of 9 (3.93) |
| Y31V P54K | 4.16 / nd / nd | 4.16 | 2 of 9 (4.35) |
| D25F V97W F98A | 2.95 / 4.28 / nd | 3.62 | 3 of 9 (3.96) |
| E23R D25H N52G | 2.76 / 2.68 / 2.75 | 2.73 | 0 of 9 |
| E23C A32G S89W | 5.29 / 5.41 / 3.76 | 4.82 | 3 of 9 (3.36) |
| N33M N51K R90M | 3.42 / 4.90 / 3.80 | 4.04 | 5 of 9 (4.06) |
| N52P F95V F98A | nd / nd / nd | nd | 1 of 9 (3.62) |
| G24T P54R S92G | nd / 4.77 / nd | 4.77 | 2 of 9 (3.60) |
| E23M G24Q Y30L | 2.82 / 3.31 / 2.35 | 2.83 | 2 of 9 (4.36) |
| D25G G49I S93K | nd / 5.10 / nd | 5.10 | 3 of 9 (3.87) |
| D25R Y29K S89N | 3.40 / 3.68 / nd | 3.54 | 5 of 9 (3.54) |
| N33T S93M Q96M | nd / nd / nd | nd | 0 of 9 |
| E23K A32Y N33G | 3.58 / nd / 4.58 | 4.08 | 3 of 9 (3.54) |
| P54V D91I | 2.63 / 2.84 / 2.62 | 2.70 | 2 of 9 (3.44) |
| S26K R53C S55L | 3.69 / nd / 4.42 | 4.06 | 0 of 9 |
| D25C P54C S92G | nd / 4.31 / nd | 4.31 | 5 of 9 (4.10) |
| P54N S55W | 2.74 / nd / 3.62 | 3.18 | 0 of 9 |
| L27C G49T S55H | 3.66 / 4.00 / nd | 3.83 | 4 of 9 (3.88) |
| L27E N52R S55L | 3.83 / 5.17 / 4.28 | 4.42 | 3 of 9 (3.97) |
| N33V G49Y S89E | 3.25 / nd / nd | 3.25 | 2 of 9 (3.61) |
| A32P N52C F95A | 2.57 / 2.37 / 2.01 | 2.32 | 4 of 9 (3.89) |
| K50S S88C D91T | 3.26 / 2.52 / 2.32 | 2.70 | 4 of 9 (4.22) |
| E23Q Y30A D91W | 3.11 / 2.04 / 2.65 | 2.60 | 1 of 9 (4.03) |
| E23H K50P Q96M | 2.74 / 3.07 / 2.91 | 2.91 | 3 of 9 (3.49) |
| N33W P54Q R90D | nd / nd / 4.30 | 4.30 | 0 of 9 |
| S88M F98K | 2.15 / 2.04 / 1.89 | 2.02 | 1 of 9 (3.84) |
| K50A R90F D91L | nd / 3.53 / 3.65 | 3.59 | 0 of 9 |
| N52R S88W V97L | nd / 4.34 / nd | 4.34 | 1 of 9 (4.15) |
| F95R | 2.11 / 2.02 / 1.89 | 2.01 | 1 of 9 (5.55) |
| A32C D91N | 3.20 / 2.79 / 2.91 | 2.96 | 5 of 9 (3.61) |
| G49P S55D F98L | nd / 4.40 / nd | 4.40 | 2 of 9 (4.12) |
| R28W S93M Q96T | 3.38 / nd / 2.27 | 2.82 | 2 of 9 (3.09) |
| P54A S55N F95N | 2.73 / 3.01 / 2.16 | 2.63 | 1 of 9 (3.38) |
| D25L R90H F95H | 5.20 / nd / nd | 5.20 | 3 of 9 (4.22) |
| D25M R90S | 3.84 / 3.81 / nd | 3.82 | 2 of 9 (4.33) |
| N52K S93T F98V | 2.83 / 3.18 / 3.32 | 3.11 | 4 of 9 (3.26) |
| Y30S S89N V97H | 2.58 / 2.33 / 1.86 | 2.26 | 3 of 9 (5.66) |
| D25H S92N F95N | 4.02 / nd / 3.86 | 3.94 | 0 of 9 |
| G24S P54N Q96R | 2.84 / 3.30 / 2.98 | 3.04 | 5 of 9 (3.54) |
| A32I G94R | 3.83 / 3.62 / nd | 3.73 | 2 of 9 (3.64) |
| G24K P54G D91Y | nd / nd / nd | nd | 2 of 9 (3.82) |
| D25R G94C F95T | 3.60 / 3.85 / 4.52 | 3.99 | 3 of 9 (3.59) |
| E23R N51W | 3.01 / 2.65 / 2.91 | 2.86 | 1 of 9 (4.13) |
| R90N | 2.28 / 2.33 / 2.60 | 2.40 | 1 of 9 (3.69) |
| P54V S89I F98L | 2.37 / 2.56 / 3.51 | 2.82 | 0 of 9 |
| Y31R S55P | 2.24 / 2.18 / 1.93 | 2.12 | 4 of 9 (4.50) |
| S26W G49Y P54I | 4.23 / 4.28 / nd | 4.26 | 1 of 9 (4.21) |
| P54E D91T Q96D | 1.89 / 1.82 / 1.70 | 1.80 | 2 of 9 (4.80) |
| Y29I G49H N52Q | 3.84 / 4.04 / 4.13 | 4.00 | 5 of 9 (3.96) |
| R28K R90C S93N | nd / nd / nd | nd | 3 of 9 (3.82) |

Three control strains display no target. For library AAYL52, 28% of the pairings with them gave a signal, with a median of 3.91 and one signal in twenty below 2.90, so weak values seen in few replicates may be background. For each scFv, signals with the empty controls are counted beside the result, with their mean in brackets.
For reference, the parent read 2.31 as the reference entry and 2.25 as a member of this library.